Most compounds without a hit are left out; they make up all but 13% or so of the library.
ALDH1A1 inh: blocks purified human ALDH1A1 activity. P00352. Purified ALDH1A1, NADH fluorescence, propionaldehyde substrate. Potency, µM (titrated, usually from 75.3 µM), without a hit: top-dose activity, negative = inhibition, usual class: inhibitors. 220,000 tested, 7.3% active; active = well fitted inhibition curve with a large enough effect, not every such curve was filed as active; inconclusive = small, poorly fitted or top-dose-only effect, or another doubt; inactive = no such curve, though single readings can be large or run the other way;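 also: potency is read from the fitted curve at half-maximal effect; plate controls were no enzyme wells and a reference inhibitor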
Sfp inh: inhibitors of Bacillus subtilis Sfp phosphopantetheinyl transferase. Q9F4F7. Biochemical Sfp PPTase activity, qHTS. Potency, µM, without a hit: max response, negative = inhibition, most hits filed as inhibitors. 3.5% of 310,000 active; active = well fitted inhibition curve with a large enough effect; inconclusive = small, poorly fitted or top-dose-only effect, or another doubt; inactive = no such curve, though single readings can be large or run the other way;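 note: the enzyme is Sfp with the accession as filed and its product quenches rhodamine fluorescence; potency is the fitted concentration of half-maximal effect; 0% = enzyme reaction without inhibitor and -100% = no enzyme wells; top concentration of the series not given in the record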
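Buffer: 50 mM Hepes-Na pH 7.6, 10 mM MgCl2, 0.01% Nonidet P-40, 0.01% BSA. Enzyme 15 nM, pre-exposed to compound 15 min; substrates then added and fluorescence change tracked over 30 min.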
JMJD2E inh: blocks human JMJD2E demethylase activity; B2RXH2; JMJD2E catalytic domain, FDH-coupled NADH fluorescence (FDH is formaldehyde dehydrogenase); Potency, µM (titrated, usually from 57.1 µM), for inactives: at the highest dose activity change, negative = inhibition, usual class: inhibitors; 230,000 tested, 1.6% active; active = well fitted inhibition curve with a large enough effect, not every such curve was filed as active; inconclusive = small, poorly fitted or top-dose-only effect, or another doubt; inactive = no such curve, though single readings can be large or run the other way;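 also: potency is read from the fitted curve at half-maximal effect; 0% = wells with enzyme and -100% = buffer wells without enzyme; nearly all actives have a fitted effect of over 50% in size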
LMNA splice mod: changes lamin A minigene splicing in HeLa cells | 200,000 tested, 0.01% active | AID 1487 | Potency, µM (titrated, usually from 46.1 µM), for the others: top-dose ratio change, negative = inhibition, usual class: inhibitors | HeLa LMNA splicing GFP/RFP minigene ratio, 48 h; active = well fitted inhibition curve with a large enough effect in the signal ratio, with a control signal flat, not every such curve was filed as active; inconclusive = small, poorly fitted or top-dose-only effect, or effect the other way, or a change in a side signal; the % refers to the signal ratio; also: potency is read from the fitted curve at half-maximal effect; % is scaled to controls: 0 for no effect and ±100 for the full control effect
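S3 HeLa stable clones carrying a lamin A-EGFP splicing minigene plus DsRed2 were seeded at 600 cells/well in Opti-MEM with 2% FBS, pin-dosed and incubated 48 h at 37°C. Acumen cytometry (488 nm) gave the GFP/RFP total-intensity ratio.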
G9a inh: inhibitors of human histone lysine methyltransferase G9a; G9a H3K9 monomethylation, AlphaScreen, 2 h; AID 504332; Q96KQ7; Potency, µM (series often up to 102 µM), inactives show at the top dose activity, negative = inhibition, hits mostly inhibitors; 350,000 tested, 8.8% active; also: potency is read from the fitted curve at half-maximal effect; % is scaled to controls: 0 for no effect and ±100 for the full control effect; nearly all actives have a fitted effect of over 75% in size
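Signal arises when biotinylated H3K9 peptide, once monomethylated, bridges streptavidin donor and antibody-captured acceptor beads. Enzyme at 20 nM was preincubated 15 min with test compounds; peptide 500 nM and SAM 20 uM then reacted for 2 h.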
miR-21 reporter: miR-21 reporter, rising signal; HeLa miR-21 FLuc reporter, luciferase, 48 h; Potency, µM (doses to about 38.3 µM), for inactives: at the highest dose reporter change, positive = more light; 340,000 tested, under 10 active; AID 2288; active = well fitted rising curve with a large enough effect; inconclusive = small, poorly fitted or top-dose-only effect; inactive = no such curve, though single readings can be large or run the other way;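 further: % of control where 0% means no effect; miR-21 action dims this reporter so a rising signal means less miR-21 action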
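HeLa miR-21-FLuc reporter line, endogenous miR-21; 2000 cells/well in DMEM/10% FBS; compound titration up to ~40uM final, 48 h, 37 degree Celsius; luciferase detection reagent, 15 min lysis, CCD luminescence.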
* = called active by the depositor; ? = inconclusive; . = not tested or not shown; [ ] = another dose, or the depositor's remark. Unless noted, calls follow the shape of the dose curve; as a rule, active = well fitted curve in the direction sought with a large enough effect; inconclusive = small, poorly fitted or top-dose-only effect, or another doubt; inactive = no such curve, though single readings can be large; an effect the other way counts as inactive or inconclusive.

SMILES | ALDH1A1 inh | Sfp inh | JMJD2E inh | LMNA splice mod | G9a inh | miR-21 reporter
CCCn1nnc(NC(=S)NC(=O)c2cccs2)n1 | ? | 39.8µM* | -7.8% | 1.3% | 14.1µM* | -46.3%
CCCCCC(=O)Nc1nnn(CCC)n1 | 15.1% | 5.7% | 1.0% | -6.7% | -8.6% | -4.2%
O=C(CN1C=NS(=O)(=O)c2ccc(C(F)(F)F)cc21)Nc1cccc(C(F)(F)F)c1 | . | . | . | -9.8%[46 µM] | -1.5%[59 µM] | 3.7%
Cc1cc(C)cc(OCC(=O)N(Cc2ccccc2)C2CCS(=O)(=O)C2)c1 (stereo not drawn) | . | 7.6% | . | . | -17.0% | -1.7%
Cc1ccc(C(=O)NCc2ccccn2)cc1NC1=NC2CS(=O)(=O)CC2S1 (stereo not drawn) | . | 12.9% | . | . | 16.7% | 1.5%
Cc1ccc(C)c(S(=O)(=O)NC(C)CCc2ccccc2)c1 (stereo not drawn) | . | -1.3% | . | . | 63.8% | -0.2%
O=C(O)c1cc(S(=O)(=O)Nc2cc(Cl)ccc2Oc2ccccc2)ccc1O | . | . | . | . | 15.8µM* | .
COC(=O)N1CCc2cc(OC)c(OC)cc2C1Cc1ccc(OC)cc1 (stereo not drawn) | 3.0%[13.5 µM] | 19.9% | . | . | . | .
COc1cc2c(cc1OC)C(Cc1ccc(O)cc1)N(C)CC2 (stereo not drawn) | ? | 18.7% | ? | -3.3% | 50.1µM* | 4.2%
NC(=O)c1ccsc1NC(=O)c1ccc(N2CCCC2=O)cc1 | ? | 11.9% | -28.9% | . | 44.7µM* | 0.0%
COc1ccccc1CNS(=O)(=O)c1ccc2c(c1)CC(C)N2C(C)=O (stereo not drawn) | . | . | . | 5.8%[46 µM] | 1.1%[59 µM] | 2.7%
O=C(COC(=O)c1ccc2c(c1[N+](=O)[O-])C(=O)c1ccccc1C2=O)NC1CC1 | ? | 7.9% | 6.2% | ? | 35.5µM* | -2.9%
CC(C)(C)NC(=O)CN(C(=O)CN1C(=O)C(=O)c2ccccc21)C(C)(C)C | 0.126µM* | 7.7% | 3.2% | . | 6.3%[59 µM] | 0.6%
O=C(COC(=O)c1ccccc1C(=O)c1ccc(Cl)c([N+](=O)[O-])c1)NC1CCCCCC1 | 14.1µM* | -7.8% | 8.9% | ? | ? | 8.9%
O=C(COC(=O)c1cccc(C(=O)OCC(=O)NC2CC2)n1)NC1CC1 | -12.3% | -11.0% | -4.0% | -7.7%[46 µM] | 14.1µM* | 3.4%
O=C(COC(=O)c1ccc(Cl)c([N+](=O)[O-])c1)NC1CCCC1 | . | 8.5% | . | . | -8.5%[2.33 µM] | 3.6%
CN(C)CCO[C@](C)(c1ccccc1)c1ccccn1 | 4.1%[20.9 µM] | -0.4% | 5.8%[25.5 µM] | 4.4% | 15.5%[21.5 µM] | .
Cc1ccc(OCC(=O)NCC2(N3CCOCC3)CCCCC2)cc1C | . | . | . | ? | -30.4%[59 µM] | ?
COC(=O)C/C=C\[C@@H](C)[C@@H](/C=N\OCC[C@H]1C=C[C@H](OC(C)=O)[C@@H](COC(C)=O)O1)NS(=O)(=O)c1ccc(C)cc1 | -8.7%[13.5 µM] | 4.4% | . | . | . | .
Cc1ccc(NC(=O)C2CCCN(S(=O)(=O)c3c(C)n[nH]c3C)C2)cc1C (stereo not drawn) | . | . | . | . | 1.0%[59 µM] | 1.0%
O=C(COC(=O)c1ccc(Cl)c([N+](=O)[O-])c1)Nc1ccccc1OC(F)F | 9.8% | 1.0% | -1.3% | 1.3% | 1.58µM* | 0.8%
O=C(CN1C(=O)C(=O)c2ccccc21)NC1CCCCC1 | 0.891µM* | 3.8% | 2.9% | -6.4% | 11.7%[59 µM] | 1.4%
O=C(CN1C(=O)CSc2ccccc21)NC1CCCC1 | -10.3% | 7.8% | 0.1% | 3.5% | 3.5% | -0.9%
O=C(COC(=O)c1cccc2c1C(=O)c1ccccc1C2=O)NC1CCCCC1 | ? | -15.0% | -0.4% | ? | 17.8µM* | 20.6%
C=CCn1c(SCC(=O)Nc2ccc(F)cc2)nnc1-c1cnccn1 | . | 5.3% | . | . | 21.0% | -9.4%

Entries listed so far that have fluorine (three):
SMILES | ALDH1A1 inh | Sfp inh | JMJD2E inh | LMNA splice mod | G9a inh | miR-21 reporter
O=C(CN1C=NS(=O)(=O)c2ccc(C(F)(F)F)cc21)Nc1cccc(C(F)(F)F)c1 | . | . | . | -9.8%[46 µM] | -1.5%[59 µM] | 3.7%
O=C(COC(=O)c1ccc(Cl)c([N+](=O)[O-])c1)Nc1ccccc1OC(F)F | 9.8% | 1.0% | -1.3% | 1.3% | 1.58µM* | 0.8%
C=CCn1c(SCC(=O)Nc2ccc(F)cc2)nnc1-c1cnccn1 | . | 5.3% | . | . | 21.0% | -9.4%

Following part:
SMILES | ALDH1A1 inh | Sfp inh | JMJD2E inh | LMNA splice mod | G9a inh | miR-21 reporter
COc1ccc2[nH]c(=O)c(CN(CCN3CCCC3)C(=O)Nc3ccccc3Cl)cc2c1 | ? | -8.4% | ? | 10.3% | 50.1µM* | 18.1%
CCc1ccc2[nH]c(=O)c(CN(CCCN3CCOCC3)C(=O)Nc3cccc(Cl)c3)cc2c1 | ? | -9.2% | ? | ? | 50.1µM* | 19.1%
Cc1ccc(C)c2[nH]c(=O)c(CN(CCN3CCCC3)C(=O)Nc3cccc(Cl)c3)cc12 | ? | 14.1µM* | ? | ? | 28.2µM* | 15.1%
CCc1ccc2[nH]c(=O)c(CN(CCCN3CCOCC3)C(=O)Nc3ccc(Cl)cc3)cc2c1 | ? | 17.6% | -1.7% | -1.7% | -30.3% | -3.2%
N#C/C(=N\Nc1ccccc1Cl)C(=O)c1ccccc1 | -67.0% | 11.6% | 5.6% | 3.3% | ? | -9.6%
CC(=O)/C(N)=N/Nc1cccc(Cl)c1 | -7.4% | -10.6% | -10.9% | ? | 50.1µM* | -2.7%
N#C/C(=N\Nc1cccc(Cl)c1)C(=O)c1ccccc1 | 2.1% | 11.7% | -3.4% | ? | 25.1µM* | 15.9%
C/C(Cl)=C/Cn1c(SC(C)C)nc2c1c(=O)[nH]c(=O)n2C | 5.01µM* | ? | -5.2% | 6.9% | ? | -14.0%
CCOC(=O)CSc1nc2c(c(=O)[nH]c(=O)n2C)n1C/C=C(/C)Cl | 17.8µM* | 50.1µM* | 1.8% | 13.9% | 14.1µM* | -1.0%
CCOC(=O)Cn1c(Br)nc2c1c(=O)[nH]c(=O)n2C | 3.5% | -0.9% | -0.4% | -9.6% | -33.4% | -0.2%
CCCCCn1c(SCCN2CCOCC2)nc2c1c(=O)[nH]c(=O)n2C | -14.9% | 50.1µM* | 6.4% | 14.0% | 25.1µM* | -3.0%
CCCCCCn1c(SCCN2CCOCC2)nc2c1c(=O)[nH]c(=O)n2C | 4.2% | -6.2% | 7.5% | 8.3% | -8.5%[59 µM] | -0.3%
CCCCn1c(SCC(=O)OCC)nc2c1c(=O)[nH]c(=O)n2C | 12.6µM* | -21.3% | 3.4% | -5.4% | 10µM* | -7.9%
C/C(Cl)=C/Cn1c(N2CCCC2)nc2c1c(=O)[nH]c(=O)n2C | . | 7.1% | . | . | 22.6% | -2.8%
CCOC(=O)CSc1nc2c(c(=O)[nH]c(=O)n2C)n1CCc1ccccc1 | ? | 3.6% | -0.1% | 9.0% | -1.0% | 3.5%
Cn1cnc(S(=O)(=O)N2CCN(c3cccc(C(F)(F)F)c3)CC2)c1 | . | 14.5% | . | . | 10.4% | -8.3%
Cc1ccc(NC(=O)Cn2nnc(-c3nc(-c4ccc(Cl)cc4)no3)c2N)cc1C | . | . | . | . | ? | -0.7%
O=C(c1ccco1)N1N=C(c2ccc(Br)cc2)CC1c1ccco1 (stereo not drawn) | . | . | . | . | -11.3%[12.7 µM] | .
O=C(COC(=O)CNS(=O)(=O)c1ccc2ccccc2c1)Nc1ccccc1Sc1ccccc1 | 17.8µM* | 31.6% | -11.2% | 6.2% | 16.7%[59 µM] | -5.7%
CCN(CC)S(=O)(=O)c1ccc(NC(=O)COC(=O)CNS(=O)(=O)/C=C/c2ccccc2)cc1 | 1µM* | 3.2% | 1.5% | ? | 15.0%[59 µM] | 6.7%
Cc1ccc(Cl)c(NC(=O)COC(=O)CNS(=O)(=O)/C=C/c2ccccc2)c1Cl | 9.9% | 50.1µM* | -0.2% | 6.5% | ? | 0.7%

Screening data: PubChem BioAssay, National Center for Advancing Translational Sciences (NCATS)
